Permeability data for macrocyclic peptides

Values of Furukawa et al. 2016, doi:10.1021/acs.jmedchem.6b01246, as listed in CycPeptMPDB.

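Conditions beyond the assay type are not listed; see the original paper. The list need not hold all peptides of the study. Peptides that the database sets to -10, its floor, are left out.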

PAMPA is the parallel artificial membrane permeability assay, which has no cells and reads passive diffusion. P is given in units of 10^-6 cm/s (from log10 values with two decimals); larger means faster passage.

Listed for CCCCCN1CC(=O)N(C)[C@@H](CC(C)C)C(=O)N[C@@H](CCCC)C(=O)N2CCC[C@@H]2C(=O)N(CCN2CCOCC2)CC(=O)N[C@@H](Cc2ccc3ccccc3c2)C1=O: PAMPA 1.6 × 10^-6 cm/s. CCCC[C@@H]1NC(=O)[C@H](CC(C)C)N(C)C(=O)CN(CCCc2cnn(C)c2)C(=O)[C@H](C)NC(=O)CN(CCN2CCOCC2)C(=O)[C@H]2CCCN2C1=O is reported with PAMPA 0.0063 × 10^-6 cm/s. The entry for CCCCCN1CC(=O)N(C)[C@@H](CC(C)C)C(=O)N[C@@H](CCCC)C(=O)N2CCC[C@@H]2C(=O)N(CCCCc2ccccc2)CC(=O)N[C@@H](C)C1=O lists PAMPA 2.5 × 10^-6 cm/s. CCCC[C@@H]1NC(=O)[C@H](CC(C)C)N(C)C(=O)CN(CC2CCCCC2)C(=O)[C@H](CC(C)C)NC(=O)CN(Cc2ccc3c(c2)OCO3)C(=O)[C@H]2CCCN2C1=O has PAMPA 0.032 × 10^-6 cm/s. For CCCC[C@@H]1NC(=O)[C@H](CC(C)C)N(C)C(=O)CN(CCOC)C(=O)[C@H](Cc2ccc3ccccc3c2)NC(=O)CN(CC)C(=O)[C@H]2CCCN2C1=O the data give PAMPA 6.8 × 10^-6 cm/s. CCCC[C@@H]1NC(=O)[C@H](CC(C)C)N(C)C(=O)CN(Cc2ccccc2)C(=O)[C@H](Cc2ccccc2)NC(=O)CN(CCN2CCOCC2)C(=O)[C@H]2CCCN2C1=O has PAMPA 3.8 × 10^-6 cm/s. For CCCC[C@@H]1NC(=O)[C@H](CC(C)C)N(C)C(=O)CN(CC2CCOCC2)C(=O)[C@H](Cc2ccccc2)NC(=O)CN(CCC)C(=O)[C@H]2CCCN2C1=O the data give PAMPA 6.5 × 10^-6 cm/s.

Listed for CCCC[C@@H]1NC(=O)[C@H](CC(C)C)N(C)C(=O)CN(CCOc2ccccc2)C(=O)[C@H](Cc2ccc3ccccc3c2)NC(=O)CN(Cc2ccccc2Cn2cccn2)C(=O)[C@H]2CCCN2C1=O: PAMPA 0.021 × 10^-6 cm/s. For CCCC[C@@H]1NC(=O)[C@H](CC(C)C)N(C)C(=O)CN(CCOC)C(=O)[C@H](C)NC(=O)CN(Cc2ccc(Cl)cc2)C(=O)[C@H]2CCCN2C1=O the data give PAMPA 5.6 × 10^-6 cm/s. CCCC[C@@H]1NC(=O)[C@H](CC(C)C)N(C)C(=O)CN(CC2CCOCC2)C(=O)[C@H](Cc2ccc3ccccc3c2)NC(=O)CN(CCCOC(C)C)C(=O)[C@H]2CCCN2C1=O is reported with PAMPA 5.2 × 10^-6 cm/s. CCCC[C@@H]1NC(=O)[C@H](CC(C)C)N(C)C(=O)CN(CC2CCOCC2)C(=O)[C@H](C)NC(=O)CN(Cc2ccc(Cl)cc2)C(=O)[C@H]2CCCN2C1=O has PAMPA 4.1 × 10^-6 cm/s. Listed for CCCC[C@@H]1NC(=O)[C@H](CC(C)C)N(C)C(=O)CN(CCCc2ccccc2)C(=O)[C@H](C)NC(=O)CN(CCC)C(=O)[C@H]2CCCN2C1=O: PAMPA 11 × 10^-6 cm/s. CCCC[C@@H]1NC(=O)[C@H](CC(C)C)N(C)C(=O)CN(CC2CCOCC2)C(=O)[C@H](C)NC(=O)CN(CC(C)C)C(=O)[C@H]2CCCN2C1=O has PAMPA 0.55 × 10^-6 cm/s. CCCC[C@@H]1NC(=O)[C@H](CC(C)C)N(C)C(=O)CN(CCCc2cnn(C)c2)C(=O)[C@H](Cc2ccccc2)NC(=O)CN(Cc2ccccc2Cn2cccn2)C(=O)[C@H]2CCCN2C1=O is reported with PAMPA 2.1 × 10^-6 cm/s.

Listed for CCCCCN1CC(=O)N(C)[C@@H](CC(C)C)C(=O)N[C@@H](CCCC)C(=O)N2CCC[C@@H]2C(=O)N(Cc2ccccc2Cn2cccn2)CC(=O)N[C@@H](Cc2ccccc2)C1=O: PAMPA 0.13 × 10^-6 cm/s.

Excerpt, the final 2 entries:

compound	PAMPA (10^-6 cm/s)
CCCC[C@@H]1NC(=O)[C@H](CC(C)C)N(C)C(=O)CN(CCCc2cnn(C)c2)C(=O)[C@H](Cc2ccccc2)NC(=O)CN(Cc2ccccc2Cn2cccn2)C(=O)[C@H]2CCCN2C1=O	2.1
CCCCCN1CC(=O)N(C)[C@@H](CC(C)C)C(=O)N[C@@H](CCCC)C(=O)N2CCC[C@@H]2C(=O)N(Cc2ccccc2Cn2cccn2)CC(=O)N[C@@H](Cc2ccccc2)C1=O	0.13